The target of this test is mu opioid receptor, P35372. Kind of test: PDSP receptor binding; log of Ki in M.

Regarding YKWFEG (modifications not checked) [ZH853], the Log Ki is -9.03.

These data come from patent US20250296958A1, “GL[…] E[…]” (THE ADMINISTRATORS OF THE TULANE EDUCATIONAL FUND, priority 2022, published 2025).
